# scFv variants of Ab-14 (light chain) against a SARS-CoV-2 spike peptide

Values reported by Engelhart et al. 2022, doi:10.1038/s41597-022-01779-4 (FLAb copy).

Antigen: PDVDLGDISGINAS, a 14-residue peptide of the SARS-CoV-2 spike HR2 region.

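The starting antibody came from a phage panning campaign against this peptide. AAYL50 was designed without a model: most single CDR substitutions and a random sample of double and triple ones. AlphaSeq pools MATa yeast showing the antibodies with MATalpha yeast showing the peptide. The frequency of each diploid, read from paired DNA barcodes, reflects how well the two displayed proteins bind. A regression on co-assayed BCL2-family reference pairs converts the normalised counts of each replicate to an apparent Kd. There are three technical replicates.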

Parent: Ab-14, a human scFv built as VH, a 15-residue (Gly4Ser)3 linker, VL. Only the CDRs of the light chain vary.
VH: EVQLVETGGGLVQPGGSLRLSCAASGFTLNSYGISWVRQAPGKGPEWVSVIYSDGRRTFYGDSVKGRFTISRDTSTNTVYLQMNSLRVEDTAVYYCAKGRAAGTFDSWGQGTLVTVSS
VL: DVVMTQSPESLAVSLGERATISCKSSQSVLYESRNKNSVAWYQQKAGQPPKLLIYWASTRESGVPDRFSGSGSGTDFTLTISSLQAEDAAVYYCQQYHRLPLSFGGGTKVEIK

Variants are written as CDR1, CDR2 and CDR3 of the light chain (limits as in the source). Parent: KSSQSVLYESRNKNSVA, WASTRES, QQYHRLPLS. Kd is apparent (estimated from mating counts) and averaged on the log scale over replicates with a signal. Smaller is tighter. "nd" marks a missing value. The strain was present, yet no cells mated with the target were sequenced in any replicate, which points to weak or no binding. Entries are sorted by rising average, undetected variants last. In this assay the parent's reference entry averaged 4.4 nM; its copy inside this library read 48 nM.

CDR-L1,CDR-L2,CDR-L3,apparent Kd,replicates with signal
KSSQSVLNESRNLNSVA,WASTRES,QQYHRLPLS,3.7 nM,3 of 3
KSSISVLTESRNKNSVA,WASTRES,QQYHRLPLS,3.9 nM,3 of 3
KSSQSWLYESDYKNSVA,WASTRES,QQYHRLPLS,4.5 nM,3 of 3
KSSQSVLQESKNKNSVA,WASTRDS,QQYHRLPLS,5.7 nM,3 of 3
KSSQSVLYESRRKNSVA,NASTRES,QQYHRLRLS,6.9 nM,3 of 3
KSSQSVLYESDNKNSVA,WASTRKS,QQYYRLPLS,7.1 nM,3 of 3
KSSQSFLYESRNKNSVA,WASTRES,RQRHRLPLS,12 nM,3 of 3
KSSQSVTYESRNKNSVA,WAHTRES,QQYHRLPLS,15 nM,3 of 3
DSSQSVLYESRNKNSVA,WASTRCS,QQYHRGPLS,16 nM,3 of 3
KSHQSVLYESRNCNSVA,WASTRES,QQYYRLPLS,20 nM,3 of 3
KSSQSVLYESRDKNSVA,WASTRES,QSYHRLPLS,21 nM,3 of 3
KSSQSVLYESRNKPSVA,WASTRAS,QQYHRLPLM,43 nM,3 of 3
KSSGSVLYESINKNSVA,WASTRES,QQYHRLMLS,55 nM,3 of 3
KSNQSVFYESRNKESVA,WASTRES,QQYHRLPLS,62 nM,3 of 3
KSSTSVLYWSRNKQSVA,WASTRES,QQYHRLPLS,67 nM,3 of 3
KSSQSVLYESGNKNMVA,WASTRES,QQPHRLPLS,70 nM,3 of 3
KSSQSVLYESRNKNSVA,YASHRES,QQYHRLPLS,87 nM,3 of 3
KSSRSVLYESRYKNSVA,WASTRES,QQYHVLPLS,92 nM,3 of 3
KSSQSVLYESRNKNEVA,WASVRES,QQYDRLPLS,150 nM,3 of 3
QSSQSVLYESLNKNSVA,WASTPES,QQYHRLPLS,150 nM,3 of 3
KSSQSMYYESRYKNSVA,WASTRES,QQYHRLPLS,210 nM,3 of 3
QSSQSVLYESRRPNSVA,WASTRES,QQYHRLPLS,250 nM,3 of 3
KSSQSVLYESRNDISVA,WAVTRES,QQYHRLPLS,380 nM,3 of 3
KSSQSMLYESRNKNSVA,WAATRES,QHYHRLPLS,480 nM,1 of 3
KSSQSVLYEKRNKNSVA,WASTRES,QQYHRKPFS,560 nM,2 of 3
KSSQSVLYEGINKNSVA,WASTRES,QQYHRLQLS,590 nM,1 of 3
KSSQSVLYCSRNKNSIA,WASTRES,QQYHRLPCS,960 nM,1 of 3
FSEQSVLYLSRNKNSVA,WASTRES,QQYHRLPLS,1.0 µM,2 of 3
KSSQSWLYESRNKDSVA,WAVTRES,QQYHRLPLS,1.0 µM,3 of 3
KSSQSVLYEGRNKNSVA,WAYTRES,QQYHGLPLS,1.1 µM,2 of 3
KSSQEVLYESRNKNLVA,WASTRES,QGYHRLPLS,2.1 µM,1 of 3
KSSYSVLYESVNKNSVA,WASTRES,QQYHRLPYS,2.2 µM,3 of 3
KSSQSCLYESRNKNSVA,WASDRES,QTYHRLPLS,17 µM,1 of 3
KDSQSVLYESRNKNYVA,WASTRES,QQYHRLPLF,18 µM,2 of 3
KSSQSVLEESRNKNSVA,WASTRES,QMYHRLDLS,19 µM,1 of 3
KSSQSVLHNSRNKNSVA,WASTRES,QQYHRLPQS,50 µM,3 of 3
KSSQSVLYESRNKISNA,WASTRES,QQYMRLPLS,68 µM,1 of 3
KSSQSVLEESRNKNSVA,WASTDES,QQYHRLPES,110 µM,1 of 3
KSSQSVLYESVNKNIVQ,WASTRES,QQYHRLPLS,120 µM,1 of 3
KSSQSVLYESRNKNSVA,WASTVES,QFYHMLPLS,210 µM,1 of 3
KSSQSVLYETRNKNSVM,WASTRES,QQYHRLPLS,nd,0 of 3
KSSQSVLYESRNKNSVA,WPSTRES,QQYSRWPLS,nd,0 of 3
LSSGSVLYESRNKNSVA,WASTRES,QQYHRLPTS,nd,0 of 3
KSSQSVLYESRNKNSVA,WASTNES,GQYHREPLS,nd,0 of 3
KSSQSVLYESRNKVSVA,WCSIRES,QQYHRLPLS,nd,0 of 3
KSSQSVLYESRNKNSVA,WPSTEDS,QQYHRLPLS,nd,0 of 3
KSSQSLLYESRNKNSVA,WASTRES,QFPHRLPLS,nd,0 of 3
KSSQSVLYESLNKNHVA,WASTMES,QQYHRLPLS,nd,0 of 3
KSSYSVLYESRNMNSVA,WASTFES,QQYHRLPLS,nd,0 of 3
KSSQSVLYESRNKNSVA,WACTAES,EQYHRLPLS,nd,0 of 3
KSSQSVLYESRNKKSQA,WASTRES,QQYHHLPLS,nd,0 of 3
KSSQSRLYESRNKNDVP,WASTRES,QQYHRLPLS,nd,0 of 3
KSSQSVLYEARNKNSVA,WASTRET,QQYHRLPNS,nd,0 of 3
KSSQSVLYCSRNKNIVA,WASTREC,QQYHRLPLS,nd,0 of 3

5 of these entries, quoted again:

CDR-L1,CDR-L2,CDR-L3,apparent Kd,replicates with signal
KSSQSVLYESRNKNSVA,WACTAES,EQYHRLPLS,nd,0 of 3
KSSQSVLYESRNKNSVA,WASTVES,QFYHMLPLS,210 µM,1 of 3
KSSQSVLYEKRNKNSVA,WASTRES,QQYHRKPFS,560 nM,2 of 3
KSSQSVLYESRNKNSVA,WPSTEDS,QQYHRLPLS,nd,0 of 3
QSSQSVLYESLNKNSVA,WASTPES,QQYHRLPLS,150 nM,3 of 3

Nonspecific signal, from three strains lacking the peptide, appeared in 18% of pairings of library AAYL50, centred on 15 µM (5% of these signals below 970 nM); values are not corrected for it.